Data: publication PMC4848466, “Insights into the activation mechanism of class I HDAC complexes by inositol phosphates” (Nature Communications, 2016)

By UniProt entry, the sequences of proteins in these tests, tags left out. Where a name states a change or a piece, a line headed by the entry shows the natural chain unless it says otherwise. Residues count along the entry.
UniProt O15379: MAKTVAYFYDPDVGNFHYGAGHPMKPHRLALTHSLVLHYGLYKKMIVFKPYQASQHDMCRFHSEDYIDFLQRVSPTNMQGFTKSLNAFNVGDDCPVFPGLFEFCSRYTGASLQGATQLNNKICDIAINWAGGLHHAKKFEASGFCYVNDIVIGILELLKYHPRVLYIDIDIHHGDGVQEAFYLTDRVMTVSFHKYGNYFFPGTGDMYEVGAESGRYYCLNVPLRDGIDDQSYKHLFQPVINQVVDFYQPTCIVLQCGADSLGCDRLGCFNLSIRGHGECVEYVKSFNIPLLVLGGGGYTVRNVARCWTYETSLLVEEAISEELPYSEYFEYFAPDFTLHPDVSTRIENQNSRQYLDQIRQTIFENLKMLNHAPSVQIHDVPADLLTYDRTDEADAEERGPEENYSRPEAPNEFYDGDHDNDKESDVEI
UniProt Q9Y618, 350-480: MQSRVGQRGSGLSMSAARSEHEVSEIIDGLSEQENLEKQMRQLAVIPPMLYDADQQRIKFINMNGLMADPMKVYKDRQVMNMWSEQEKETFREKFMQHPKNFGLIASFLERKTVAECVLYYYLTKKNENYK

Target: HDAC3:SMRT complex (Homo sapiens, UniProt O15379+Q9Y618)
Test: Circular dichroism thermal-stability assay
Conditions: CD at 222 nm; 14 μM HDAC3:SMRT; 200 μM InsP6 and/or 40 μM SAHA; unliganded 45 °C

Tm (melting temperature of the complex): 53 °C
Compound: O=P(O)(O)O[C@H]1[C@H](OP(=O)(O)O)[C@@H](OP(=O)(O)O)[C@H](OP(=O)(O)O)[C@@H](OP(=O)(O)O)[C@H]1OP(=O)(O)O [InsP6, inositol hexaphosphate]
